Reference: patent US6998409B2, “Substituted 2-pyridine cyclohexane-1,4-diamine compounds” (dated 2006)

Test system: mice
Assay: Analgesia testing in the tail flick test in mice
Details: 10 mg/kg intravenous (dose in parentheses)

Compound	% MPE in comparison to control group
COC(=O)C(Cc1c[nH]c2ccccc12)NC1CCC(c2ccccn2)(N(C)C)CC1 (single isomer, unassigned)	91 (10) % MPE
CC(=O)N(CCc1c[nH]c2ccccc12)C1CCC(c2ccccn2)(N(C)C)CC1 (centres unmarked)	71 (10) % MPE
